Assay outcomes deposited in PubChem BioAssay by National Center for Advancing Translational Sciences (NCATS).
Rows were chosen to be rich in hits. Some 1.1% of all compounds tested hit in one or more screens of this group.
miR-21 reporter: miR-21 reporter, rising signal; HeLa miR-21 FLuc reporter, luciferase, 48 h; Potency, µM (highest dose often 38.3 µM), for the others: top-dose reporter change, positive = more light; 340,000 tested, under 10 active; AID 2288; active = well fitted rising curve with a large enough effect; inconclusive = small, poorly fitted or top-dose-only effect; inactive = no such curve, though single readings can be large or run the other way;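 further: % of control where 0% means no effect; miR-21 action dims this reporter so a rising signal means less miR-21 action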
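HeLa cells stably expressing CMV-driven firefly luciferase with a downstream miR-21 binding sequence, endogenously expressing miR-21, were treated with titrations (up to about 40uM final) for 48 hours at 37 degree Celsius. Luciferase luminescence was read after lysis.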
GALK inhibitor: inhibitors of human galactokinase. Purified GALK, Kinase-Glo residual ATP luminescence. Potency, µM (series often up to 57.5 µM), without a hit: at the highest dose activity change, negative = inhibition, actives largely listed as inhibitors. P51570. 270,000 compounds, 0.007% hits; also: potency is read from the fitted curve at half-maximal effect; % is scaled to controls: 0 for no effect and ±100 for the full control effect
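ATP-depletion format; final 35 uM ATP, 100 uM D-galactose, 5 nM enzyme; pH 8.0 HEPES/Mg2+ buffer; 60 min RT; luminescence read 10 min after detection reagent.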
TrxR1 substrate: is turned over as a substrate by rat TrxR1; purified TrxR1 substrate turnover, NADPH consumption readout; Potency, µM (doses to about 114 µM), inactives show top-dose activity change, negative = substrate turnover; 390,000 compounds, 0.01% hits; also: potency is read from the fitted curve at half-maximal effect; % is scaled to controls: 0 for no effect and ±100 for the full control effect; nearly all actives have a fitted effect of over 50% in size
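Rat TrxR1, dispensed at 90 nM, was prereduced with 400 uM NADPH (final) for 5 min at ~22 deg C, then incubated with compound 15 min before 400 uM selenite. A first-read NADPH fluorescence drop versus no-compound background flagged substrates.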
rTrxR1 inhibitor: rat TrxR1 inhibition | O89049 | recombinant rTrxR1, NADPH fluorescence consumption, selenite substrate | Potency, µM (top dose mostly 114 µM), for inactives: at the highest dose activity change, negative = inhibition, usual class: inhibitors | 390,000 compounds, 1% hits | AID 588453; also: potency is read from the fitted curve at half-maximal effect; % is scaled to controls: 0 for no effect and ±100 for the full control effect; nearly all actives have a fitted effect of over 65% in size
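Rat TrxR1 (90 nM in the dispensed reagent) was pre-reduced with 400 uM NADPH for 5 min at room temperature, then incubated with compound for 15 min. After 400 uM selenite was added, NADPH fluorescence (Ex 340/Em 450 nm) was followed for 8 min.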
PINK1 modulator: changes PINK1 expression; PINK1 immunofluorescence, high-content cytometry, 24 h; Potency, µM (series often up to 76.6 µM), for inactives: top-dose activation (PINK1 increase), actives largely listed as activators; 410,000 compounds, 0.2% hits; AID 624263; active = well fitted activation curve with a large enough effect; inconclusive = small, poorly fitted or top-dose-only effect; cell line not stated here; also: potency is read from the fitted curve at half-maximal effect; % of control where 0% means no effect; nearly all actives have a fitted effect of over 65% in size
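Cells are seeded, rested 12 hours, then given compound at five concentrations or DMSO for 24 hours. After fixation, blocking and antibody staining, PINK1 amount and mitochondrial localization are scored; CCCP serves as control.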
An asterisk follows results filed as active; ? = inconclusive; nt = no result given; ! = not active in a repeat; [ ] = remark or other dose. Unless noted, calls follow the shape of the dose curve; as a rule, active = well fitted curve in the direction sought with a large enough effect; inconclusive = small, poorly fitted or top-dose-only effect, or another doubt; inactive = no such curve, though single readings can be large; an effect the other way counts as inactive or inconclusive.

SMILES	miR-21 reporter	GALK inhibitor	TrxR1 substrate	rTrxR1 inhibitor	PINK1 modulator
COc1ccc(CN2CCOc3c(cc(-c4cccc(OC)n4)cc3OC)C2)c(O)c1	nt	nt	nt	nt	2%
COc1ccccc1NC(=O)CSc1nc2ccccc2c(=O)n1CCC(=O)NC1CCCCC1	4%	nt	-2%[57.1 µM]	6%[57.1 µM]	1%
Cc1ccc(CN(C)C(=O)c2cc(Br)c(Br)s2)o1	-7%	-2%	-4%	50µM*	3%
Cc1ccc2oc(C(=O)N(C)Cc3ccc(C)o3)c(C)c2c1	-46%	0%	-5%	7.1µM*	8%
CCCc1cc(C(=O)Nc2c(C)nn(Cc3c(Cl)cccc3Cl)c2C)no1	10%	nt	5%	20%	11%
COc1cccc(/C=C(\C#N)C(=O)Nc2ccc(NC(C)=O)cc2)c1OC	-1%	nt	-2%[57.1 µM]	4%[57.1 µM]	3%
CN(C)c1ccc(/C=C/c2nc3ccccc3s2)cc1	17%	5%	6%[57.1 µM]	14%[57.1 µM]	45µM*
CN(C)c1ccc(CNc2nc3ccccc3s2)cc1	-35%	1%	nt	nt	nt
CN(Cc1ccccc1)c1ccc(/C=C/c2nc3ccccc3s2)cc1	nt	nt	-3%	12%	?
C=C(/C=C/c1ccc(N(C)C)cc1)c1nc2ccccc2s1	nt	nt	-9%	-19%	10µM*
COc1cccc(CCNc2ncnc3sc(C(=O)N4CCOCC4)c(C)c23)c1	nt	nt	nt	nt	-1%
Cc1c(C(=O)N2CC3CCC2C3)sc2ncnc(NCCc3ccccn3)c12 (stereo not drawn)	nt	nt	nt	nt	-1%
CCc1ccc(NC(=O)Cn2c(=O)n(Cc3ccco3)c(=O)c3oc4ccccc4c32)cc1	-3%	nt	-6%	-9%	1%
NC(=O)c1nn2c(C(F)(F)F)cc(-c3ccc(Br)cc3)nc2c1Cl	-6%	nt	-6%[57.1 µM]	4%[57.1 µM]	0%
COCC(C)N=C1NN=C(c2cc(C)n(Cc3ccccc3Cl)c2C)CS1 (stereo not drawn)	-10%	4%	-9%	-8%	35µM*
COCCn1c(C)cc(C2=NNC(=Nc3ccc(Cl)cc3Cl)SC2)c1C	-2%	-1%	16%[57.1 µM]	-2%	18%[38.3 µM]
O=C(Cc1nc2ccccc2[nH]1)c1cccc([N+](=O)[O-])c1	0%	4%	-7%	-3%	14µM*
Cc1cc(NS(=O)(=O)c2ccc(NC(=S)NC(=O)c3ccc(C(C)(C)C)cc3)cc2)no1	-21%	nt	3%[0.457 µM]	45µM*	0%
Cc1cc(NS(=O)(=O)c2ccc(NC(=S)NC(=O)c3ccccc3)cc2)no1	-13%	0%	-19%	45µM*	1%
Cc1cnc(-n2ncc(C(=O)NCc3ccncc3)c2C(C)C)nc1-c1ccc(F)cc1	nt	nt	nt	nt	-1%
Oc1ccccc1/C=N/c1c(-c2ccco2)nc2ccccn12	-4%	-1%	81%	79µM*	2%
CCN(CC)c1ccc(C(=C2C=CC(=[N+](CC)CC)C=C2)c2ccccc2)cc1	nt	nt	-10%	40µM*	-1%
CCN(CC)c1ccc(C(=C2C=CC(=[N+](CC)CC)C=C2)c2ccc(N(CC)CC)cc2)cc1	nt	nt	3%	?	1%
COCCn1c(SCC(=O)c2ccc3c(c2)OCCO3)nnc1C(C)C	-6%	0%	-3%	-11%	1%
COCCn1c(SCC(=O)c2ccc(Cl)cc2)nnc1C(C)C	-6%	-1%	8%	6.3µM*	0%
Oc1c(C(c2ccccc2)N2CCOCC2)ccc2ccccc12 (stereo not drawn)	nt	nt	-12%	3.2µM*	0%
Cc1cccc(OCCSc2nc(N)cc(N)n2)c1	-47%	0%	-15%	40µM*	0%
Cc1cccc(OCCOCCSc2ncccn2)c1	-27%	-4%	-2%	-1%	2%
O=C(Nc1nc(-c2ccco2)c(-c2ccco2)s1)C1CCC1	-7%	0%	4%	?	?
CS(=O)(=O)c1ccc(C(=O)Nc2nc(-c3ccco3)c(-c3ccco3)s2)cc1	nt	nt	-20%	14µM*	9%
CCC(=O)Nc1ccc(C)cc1-c1nc2ccccc2n(CC(=O)c2ccc(C)cc2)c1=O	-1%	nt	-6%	8%	1%
Cc1ccc(NC(=O)CN2C(=O)COc3ccc(S(=O)(=O)Nc4ccccc4)cc32)c(C)c1	9%	nt	-4%	16%	0%
O=C(CSc1nnc(-c2cnccn2)n1Cc1ccco1)c1ccccc1	-8%	-2%	-1%	56µM*	nt
O=C(CSc1nnc(-c2ccccn2)n1Cc1ccco1)c1ccc(Cl)cc1	-2%	1%	-3%	?	-3%
NC(=O)CSc1nnc(-c2cnccn2)n1Cc1ccco1	0%	nt	11%	-18%	0%
O=C(CSc1nnc(-c2cnccn2)n1Cc1ccco1)c1ccc(Cl)cc1	-2%	-1%	6%	13µM*	0%[38.3 µM]
Cc1snnc1C(=O)NC(=S)Nc1ccccc1	-4%	10%	-1%	16µM*	4%
O=C(NC(=S)Nc1cccc(NC(=S)NC(=O)c2ccccc2)c1)c1ccccc1	nt	nt	-9%	-13%	7%
CN(C1=C(NC(=O)c2ccccc2)C(=O)c2ccccc2C1=O)C1CCS(=O)(=O)C1 (stereo not drawn)	20%	0%	-3%	50µM*	0%
CC(=O)NC1=C(NC2CCS(=O)(=O)C2)C(=O)c2ccccc2C1=O (stereo not drawn)	15%	-1%	-17%	?	0%

A few values from the entries so far.
In TrxR1 substrate, C=C(/C=C/c1ccc(N(C)C)cc1)c1nc2ccccc2s1 has the entry -9%
In TrxR1 substrate, CS(=O)(=O)c1ccc(C(=O)Nc2nc(-c3ccco3)c(-c3ccco3)s2)cc1 has the entry -20%

Taken from above for reference:
SMILES	miR-21 reporter	GALK inhibitor	TrxR1 substrate	rTrxR1 inhibitor	PINK1 modulator
Cc1snnc1C(=O)NC(=S)Nc1ccccc1	-4%	10%	-1%	16µM*	4%
O=C(NC(=S)Nc1cccc(NC(=S)NC(=O)c2ccccc2)c1)c1ccccc1	nt	nt	-9%	-13%	7%

The list goes on:
SMILES	miR-21 reporter	GALK inhibitor	TrxR1 substrate	rTrxR1 inhibitor	PINK1 modulator
COc1ccc(NC(=O)Cn2c(=O)n(Cc3nc(-c4ccccc4)no3)c(=O)c3cc4c(cc32)OCO4)c(OC)c1	1%	nt	8%	40%	-1%
Cc1onc(-c2ccccc2)c1C(=O)NCCN1Cc2ccccc2OC(c2ccsc2)C1 (stereo not drawn)	nt	nt	nt	nt	2%
Cc1cc(C)c(Cn2c(C)c(CNCCCc3ccccc3)c(C(=O)O)c2C)c(C)c1	-7%	nt	1%	-10%	2%
CCn1c(SCC(=O)NCc2ccco2)nnc1-c1cccs1	-8%	0%	3%	14µM*	-1%[38.3 µM]
O=C(CSc1nnc(COc2ccccc2)n1Cc1ccco1)NCc1ccco1	0%	5%	5%	11µM*	-6%[38.3 µM]
O=C(CSc1nnc(CNc2cccc(C(F)(F)F)c2)n1Cc1ccco1)NCc1ccco1	-6%	0%	11%[57.1 µM]	16µM*	-2%
Cc1ncc2c(c1CNC(=O)c1ccc3c(c1)OCO3)CCN(C(=O)c1csc3c1CCCC3)C2	nt	nt	nt	nt	0%
COc1ccc(NC(=O)c2sc3nc4n(c(=O)c3c2C)CCC4)cc1Cl	-22%	nt	-3%	0%	1%
COC(=O)c1cccc(-c2cc(Cl)c3c(c2)CC(CNC(=O)c2cccnc2)O3)c1 (stereo not drawn)	nt	nt	nt	nt	0%
CCN1CCN(c2cc(=O)n(C3CCCCC3)c(=O)[nH]2)CC1	0%	1%	10%[57.1 µM]	-1%[57.1 µM]	5%
CN1CCN(c2cc(=O)n(C3CCCCC3)c(=O)[nH]2)CC1	-1%	1%	4%[57.1 µM]	25µM*	0%
COC(=O)c1cc(Cl)c(NC(=O)/C=C/c2ccc(Cl)cc2Cl)cc1OC	0%	2%	13%	11%	14µM*!

Compound profiles (already shown). Order of values: miR-21 reporter | GALK inhibitor | TrxR1 substrate | rTrxR1 inhibitor | PINK1 modulator
Cc1ncc2c(c1CNC(=O)c1ccc3c(c1)OCO3)CCN(C(=O)c1csc3c1CCCC3)C2 is listed with nt | nt | nt | nt | 0%
O=C(CSc1nnc(CNc2cccc(C(F)(F)F)c2)n1Cc1ccco1)NCc1ccco1 is listed with -6% | 0% | 11%[57.1 µM] | 16µM* | -2%
COc1ccc(NC(=O)c2sc3nc4n(c(=O)c3c2C)CCC4)cc1Cl is listed with -22% | nt | -3% | 0% | 1%
